Sequences of proteins named here, by UniProt entry; tags and fusion partners are left off. Residues count along the entry.
UniProt P02768, 25-609 limits assumed: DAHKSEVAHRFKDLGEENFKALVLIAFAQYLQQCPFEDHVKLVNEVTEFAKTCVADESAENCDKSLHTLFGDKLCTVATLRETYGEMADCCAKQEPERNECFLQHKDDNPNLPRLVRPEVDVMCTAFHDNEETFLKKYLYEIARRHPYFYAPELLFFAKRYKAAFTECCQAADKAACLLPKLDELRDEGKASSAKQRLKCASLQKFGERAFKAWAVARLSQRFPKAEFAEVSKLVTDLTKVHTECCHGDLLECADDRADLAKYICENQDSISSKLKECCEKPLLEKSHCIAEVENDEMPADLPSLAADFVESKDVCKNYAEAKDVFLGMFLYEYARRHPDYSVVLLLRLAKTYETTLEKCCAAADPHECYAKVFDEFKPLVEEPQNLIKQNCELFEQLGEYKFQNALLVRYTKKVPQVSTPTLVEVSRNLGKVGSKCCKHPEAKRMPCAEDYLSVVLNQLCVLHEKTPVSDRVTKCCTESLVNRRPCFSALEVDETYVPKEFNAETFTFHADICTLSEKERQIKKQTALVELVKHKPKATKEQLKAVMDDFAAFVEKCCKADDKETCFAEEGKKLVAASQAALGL

According to article PMC10060303, “Interactions of fentanyl with blood platelets and plasma proteins: platelet sensitivity to prasugrel metabolite is not affected by fentanyl under in vitro conditions” (2023):

Tests used:
[1] = cited from earlier work
[2] = target: human serum albumin (HSA) (Homo sapiens, UniProt P02768); experiment: Surface plasmon resonance binding to immobilized HSA; settings: SPR, 25 °C, HBS-EP pH 7.4, ligand HSA

**Q.** With `CCC(=O)N(c1ccccc1)C1CCN(CCc2ccccc2)CC1.O=C(O)CC(O)(CC(=O)O)C(=O)O` as the molecule, how does the pKa [1] read?
**A.** 8.43

**Q.** What about the KA [2] of the same molecule?
**A.** 2.24 ± 1.82 × 10^5 M^−1

**Q.** And the ka [2]?
**A.** 4.76 ± 6.62 × 10^3 M^−1 × s^−1

**Q.** What about the kd [2] of the same molecule?
**A.** 2.02 ± 1.41 × 10^−2 s^−1

Some compounds may have been tested in ways that are not shown here.
